Data set [1] is described as follows: Relative plasma concentration of OMEPRAZOLE in male rat after oral administration.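 Further: Sprague-Dawley rats fasted one day with water available, dosed orally with prodrug compounds, OMEPRAZOLE quantified by HPLC in plasma from serial blood draws, control given OMEPRAZOLE itself orally.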
In data set [2] the test system is gastric acid secretion of the conscious male rat. As to the kind of experiment: Inhibitory effect on gastric acid secretion of the conscious male rat at timed intervals after oral administration. The format is in vivo. The settings on record: between 5-8 hours after oral administration, 10 μmole/kg, histamine and carbachol stimulated, listed as 2-{4-[(5-methoxy-2-{[(3,5-dimethyl-4-methoxy-2-pyridyl)methyl]sulfinyl } benzimi).

In the case of “2-{4-[(5-methoxy-2-{[(3,5-dimethyl-4-methoxy-2-pyridyl)methyl]sulfinyl}benzimidazol-1-yl)sulfonyl]phenoxy}-N-(2-pyridyl)acetamide and 2-{4-[(6-methoxy-2-{[(3.5-dimethyl-4-methoxy-2-pyridyl)methyl]sulfinyl}benzimidazol-1-yl)sulfonyl]phenoxy}-N-(2-pyridyl)acetamide [Example 33]”, the “Relative concentration of OMEPRAZOLE released in the plasma” value (“Relative concentration” below) in data set [1] (20 min after oral administration, male rat, examples 2 mg/kg, OMEPRAZOLE 4 mg/kg) came to 2.5 arbitrary unit; in data set [1] (40 min after oral administration, male rat, examples 2 mg/kg, OMEPRAZOLE 4 mg/kg) it was 34 arbitrary unit; in data set [1] (60 min after oral administration, male rat, examples 2 mg/kg, OMEPRAZOLE 4 mg/kg), 13 arbitrary unit; in data set [1] (80 min after oral administration, male rat, examples 2 mg/kg, OMEPRAZOLE 4 mg/kg) it was 4 arbitrary unit; in data set [1] (100 min after oral administration, male rat, examples 2 mg/kg, OMEPRAZOLE 4 mg/kg), 2 arbitrary unit; in data set [1] (120 min after oral administration, male rat, examples 2 mg/kg, OMEPRAZOLE 4 mg/kg), 2 arbitrary unit. In addition, the “Relative concentration” value was 1.5 arbitrary unit in data set [1] (140 min after oral administration, male rat, 2 mg/kg); 1 arbitrary unit in data set [1] (160 min after oral administration, male rat, 2 mg/kg); 1 arbitrary unit in data set [1] (180 min after oral administration, male rat, 2 mg/kg); 1 arbitrary unit in data set [1] (210 min after oral administration, male rat, 2 mg/kg); 1 arbitrary unit in data set [1] (240 min after oral administration, male rat, 2 mg/kg); 0.5 arbitrary unit in data set [1] (270 min after oral administration, male rat, 2 mg/kg). Also, the “Relative concentration” value is on record as 0.5 arbitrary unit in data set [1] (300 min after oral administration, male rat, 2 mg/kg); 0.3 arbitrary unit in data set [1] (330 min after oral administration, male rat, 2 mg/kg); 0.3 arbitrary unit in data set [1] (360 min after oral administration, male rat, 2 mg/kg); 0.2 arbitrary unit in data set [1] (390 min after oral administration, male rat, 2 mg/kg); 0.1 arbitrary unit in data set [1] (430 min after oral administration, male rat, 2 mg/kg). The “Bioavailability after oral administration (comparison with OMEPRAZOLE)” value in data set [1] (oral administration, male rat) is “much higher than that of OMEPRAZOLE”. In data set [1] (orally administrated to male rat), the “time for which OMEPRAZOLE was continuously released to the plasma” value is “more than 4 hours”.

As for “2-{4-[(5-methoxy-2-{[(3.5-dimethyl-4-methoxy-2-pyridyl)methyl]sulfinyl}benzimidazol-1-yl)sulfonyl]phenoxy}acetamide and 2-{4-[(6-methoxy-2-{[(3,5-dimethyl-4-methoxy-2-pyridyl)methyl]sulfinyl}benzimidazol-1-yl)sulfonyl]phenoxy}acetamide [Example 53]”, the “% inhibition of gastric acid secretion” value in data set [2] is listed as 65%.

The values above are taken from patent US6559167B1, “Prodrugs of proton pump inhibitors” (Regents of the University of California, priority 1998, dated 2003).
